ChEMBL document CHEMBL1132373, “Synthesis, opioid receptor binding, and biological activities of naltrexone-derived pyrido- and pyrimidomorphinans” (J Med Chem, 1999)

Amino acid sequences for entries named in this document (tags omitted).
UniProt P32300, whole entry: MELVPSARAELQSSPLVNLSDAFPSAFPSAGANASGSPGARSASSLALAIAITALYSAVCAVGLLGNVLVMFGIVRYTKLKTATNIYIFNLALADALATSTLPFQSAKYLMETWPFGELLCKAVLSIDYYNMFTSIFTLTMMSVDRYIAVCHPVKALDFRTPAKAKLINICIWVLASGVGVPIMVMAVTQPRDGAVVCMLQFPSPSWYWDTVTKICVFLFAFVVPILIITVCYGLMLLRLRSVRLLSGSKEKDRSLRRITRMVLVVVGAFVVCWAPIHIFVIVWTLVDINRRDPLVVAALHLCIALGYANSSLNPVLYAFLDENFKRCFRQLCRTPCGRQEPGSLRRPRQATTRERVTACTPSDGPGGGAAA

Molecular target: Delta-type opioid receptor (Mus musculus) (UniProt P32300)
Experiment: Antagonist potency measured as Ke = [antagonist]/(IC50 ratio-1) against delta opioid receptor from mouse vas deferens (MVD) using DPDPE
Format: functional
Outline: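 Vas deferens from male ICR mice (25-40 g) in 37 °C oxygenated magnesium-free Krebs, 0.5 g tension, field-stimulated 0.1 Hz, 2-ms pulses. Compound 1 µM for 30 min, washout 30 min, cumulative DPDPE curve repeated. Ke = [antagonist]/(IC50 ratio - 1); IC50 from 2-4 tissues, n ≥ 3, nonlinear least squares.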

Oc1ccc2c3c1O[C@H]1c4ncc(-c5ccc(Cl)cc5)cc4C[C@@]4(O)[C@@H](C2)N(CC2CC2)CC[C@]314
Ke: 0.66 nM
